Source: PubChem BioAssay AID651610 (Broad Institute, 2012)
Only a part is listed here, and it is no random draw. Some tests of the compounds listed are not included; inactive here does not mean inactive elsewhere. The source made the active and inactive calls.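 How the source made its calls: active means mean replicate inhibition score of at least 50 and every replicate individually at or above 50; inconclusive means only one of the two criteria met; inactive means mean below 50 and not all replicates reaching 50.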

experiment: blockers of JRFL envelope-mediated fusion – HeLa-JRFL effector, CEM21 target cells, luciferase, primary screen (AID 651610); details: HeLa-JRFL Env/CEM21 cell fusion, at 12.3 µM, hits give high values;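 further: 0% = plate neutral controls and 100% = maraviroc near 300 nM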

Question: For `O=C(NCC1(N2CCCCC2)CCCCC1)c1cccc(Cl)c1`, which inhibition is on record?
Answer: Its inhibition is inactive: -4.44%.

Question: With `COc1cccc(C(=O)NCC2(N3CCCCC3)CCCCC2)c1` as the compound, how does the inhibition read?
Answer: The inhibition was inactive: 6.81%.

Question: With `COc1ccc(Cl)cc1C(=O)NCC1(N(C)C)CCCCC1` as the compound, how does the inhibition read?
Answer: The inhibition was inactive: -9.52%.

Question: For `COc1cc(C(=O)NCC2(N(C)C)CCCCC2)c([N+](=O)[O-])cc1OC`, which inhibition is on record?
Answer: The inhibition was inactive: -18.8%.

Question: Which inhibition does the source give for `CN(C)C1(CNC(=O)c2ccc(Br)cc2)CCCCC1` here?
Answer: The inhibition was inactive: 20%.

Question: With `CC(C)Oc1ccc(C(=O)NCC2(N(C)C)CCCCC2)cc1` as the compound, how does the inhibition read?
Answer: The inhibition was inactive: 2.39%.

Question: Which inhibition does the source give for `COc1ccc(Br)c(C(=O)NCC2(N3CCCCC3)CCCCC2)c1` here?
Answer: Its inhibition is inactive: 17.4%.

Question: Which inhibition does the source give for `C=C(C)C#CC(O)(C(=O)OC1CCN(C)CC1)c1ccccc1` (configuration not stated) here?
Answer: The inhibition was inactive: -18.6%.

Question: For `Cc1ccc(C(=O)NCC2(N3CCCCC3)CCCCC2)cc1`, which inhibition is on record?
Answer: The inhibition was inactive: 7.51%.

Question: With `CCN(CC)CC(C)C(C)OC(=O)C(O)(c1ccccc1)c1ccccc1` (configuration not stated) as the compound, how does the inhibition read?
Answer: The inhibition was inactive: 12.9%.

Question: For `COc1cc(SC)ccc1C(=O)NCC1(N(C)C)CCCCC1`, which inhibition is on record?
Answer: The inhibition was inactive: 17.2%.

Question: For `CN1[C@@H]2CC[C@H]1CC(OC(=O)C(O)(c1ccccc1)c1ccccc1)C2` (some centres not stated), which inhibition is on record?
Answer: The inhibition was inactive: -9.65%.

Question: With `O=C(NCC1(N2CCCCC2)CCCCC1)c1cc([N+](=O)[O-])ccc1Cl` as the compound, how does the inhibition read?
Answer: The inhibition was inactive: -7.74%.

Question: Which inhibition does the source give for `CCN1CCCC(OC(=O)C2(O)c3ccccc3C=Cc3ccccc32)C1` (configuration not stated) here?
Answer: The inhibition was inactive: -14.6%.

Question: For `Cc1cc(C(=O)NCC2(N3CCCCC3)CCCCC2)ccc1[N+](=O)[O-]`, which inhibition is on record?
Answer: Its inhibition is inactive: -3.88%.

Question: With `O=C(NCC1(N2CCCCC2)CCCCC1)c1cccc(Br)c1` as the compound, how does the inhibition read?
Answer: The inhibition was inactive: 7.96%.

Question: With `COc1ccc(C(=O)NCC2(N(C)C)CCCCC2)cc1` as the compound, how does the inhibition read?
Answer: The inhibition was inactive: -1.38%.

Question: With `C=CCN1CCN(CCOC(=O)C(O)(c2ccccc2)c2ccccc2)CC1` as the compound, how does the inhibition read?
Answer: Its inhibition is inactive: 17.4%.

Question: Which inhibition does the source give for `O=C(NCC1(N2CCCCC2)CCCCC1)c1cc(F)c(F)cc1Cl` here?
Answer: Its inhibition is inactive: 16.5%.

Question: Which inhibition does the source give for `Cc1ccccc1C(=O)NCC1(N2CCCCC2)CCCCC1` here?
Answer: Its inhibition is inactive: -73.4%.

Question: For `CN(C)c1ccc(C(=O)NCC2(N(C)C)CCCCC2)cc1`, which inhibition is on record?
Answer: Its inhibition is inactive: -3.09%.

Question: For `CN(C)C1CCCC1OC(=O)C(O)(c1ccccc1)c1ccccc1` (configuration not stated), which inhibition is on record?
Answer: The inhibition was inactive: -15.4%.
